# Membrane permeability of cyclic peptides

Data: CycPeptMPDB; original report Kelly et al. 2021, doi:10.1021/jacs.0c06115.

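The data file gives no further conditions (lipid, pH, time, direction or concentration), and values from different papers need not be comparable. The list need not hold all peptides of the study. Peptides that the database sets to -10, its floor, are left out.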

PAMPA is the parallel artificial membrane permeability assay, which has no cells and reads passive diffusion. Values are log10 P with P in cm/s, so -5 is more permeable than -7.

CC(=O)N1CCC[C@@H]1C(=O)N(C)[C@H](CC(C)C)C(=O)N[C@@H]1C(=O)N[C@H](CC(C)C)C(=O)N(C)[C@H](CC(C)C)C(=O)N(C)[C@H](CC(C)C)C(=O)N[C@H](C)C(=O)N[C@@H](CC(C)C)C(=O)N2CCC[C@H]2C(=O)O[C@@H]1C is reported with PAMPA -5.62 (log10 cm/s). CC(=O)N1CCC[C@@H]1C(=O)N(C)[C@H](CC(C)C)C(=O)N[C@@H]1C(=O)N[C@H](CC(C)C)C(=O)N(C)[C@H](CC(C)C)C(=O)N[C@@H](CC(C)C)C(=O)N[C@@H](C)C(=O)N[C@H](CC(C)C)C(=O)N2CCC[C@@H]2C(=O)O[C@@H]1C is reported with PAMPA -5.93 (log10 cm/s). The entry for CC(=O)N1CCC[C@@H]1C(=O)N(C)[C@@H](CC(C)C)C(=O)N[C@@H]1C(=O)N(C)[C@H](CC(C)C)C(=O)N[C@H](CC(C)C)C(=O)N[C@H](CC(C)C)C(=O)N(C)[C@@H](C)C(=O)N[C@H](CC(C)C)C(=O)N2CCC[C@@H]2C(=O)O[C@@H]1C lists PAMPA -6.02 (log10 cm/s). CC(=O)N1CCC[C@@H]1C(=O)N(C)[C@H](CC(C)C)C(=O)N[C@@H]1C(=O)N[C@H](CC(C)C)C(=O)N[C@@H](CC(C)C)C(=O)N(C)[C@H](CC(C)C)C(=O)N[C@H](C)C(=O)N[C@H](CC(C)C)C(=O)N2CCC[C@@H]2C(=O)O[C@@H]1C has PAMPA -6.10 (log10 cm/s).

CC(=O)N1CCC[C@H]1C(=O)N(C)[C@@H](CC(C)C)C(=O)N[C@@H]1C(=O)N(C)[C@H](CC(C)C)C(=O)N(C)[C@H](CC(C)C)C(=O)N[C@@H](CC(C)C)C(=O)N(C)[C@H](C)C(=O)N[C@H](CC(C)C)C(=O)N2CCC[C@H]2C(=O)O[C@@H]1C has PAMPA -5.18 (log10 cm/s). CC(=O)N1CCC[C@H]1C(=O)N(C)[C@H](CC(C)C)C(=O)N[C@@H]1C(=O)N[C@H](CC(C)C)C(=O)N[C@H](CC(C)C)C(=O)N(C)[C@H](CC(C)C)C(=O)N[C@H](C)C(=O)N[C@H](CC(C)C)C(=O)N2CCC[C@@H]2C(=O)O[C@@H]1C has PAMPA -6.47 (log10 cm/s). The entry for CC(=O)N1CCC[C@H]1C(=O)N(C)[C@@H](CC(C)C)C(=O)N[C@@H]1C(=O)N[C@@H](CC(C)C)C(=O)N[C@@H](CC(C)C)C(=O)N[C@H](CC(C)C)C(=O)N(C)[C@H](C)C(=O)N[C@H](CC(C)C)C(=O)N2CCC[C@H]2C(=O)O[C@@H]1C lists PAMPA -6.66 (log10 cm/s). For CC(=O)N1CCC[C@@H]1C(=O)N(C)[C@H](CC(C)C)C(=O)N[C@@H]1C(=O)N[C@H](CC(C)C)C(=O)N[C@H](CC(C)C)C(=O)N(C)[C@@H](CC(C)C)C(=O)N(C)[C@H](C)C(=O)N[C@H](CC(C)C)C(=O)N2CCC[C@H]2C(=O)O[C@@H]1C the data give PAMPA -5.95 (log10 cm/s).

CC(=O)N1CCC[C@H]1C(=O)N[C@@H]1C(=O)N[C@H](CC(C)C)C(=O)N[C@@H](CC(C)C)C(=O)N[C@H](CC(C)C)C(=O)N[C@@H](CC(C)C)C(=O)N(C)[C@H](C)C(=O)N[C@@H](CC(C)C)C(=O)N2CCC[C@@H]2C(=O)O[C@@H]1C has PAMPA -6.40 (log10 cm/s). Listed for CC(=O)N1CCC[C@H]1C(=O)N(C)[C@H](CC(C)C)C(=O)N[C@@H]1C(=O)N(C)[C@H](CC(C)C)C(=O)N(C)[C@@H](CC(C)C)C(=O)N(C)[C@H](CC(C)C)C(=O)N(C)[C@H](C)C(=O)N[C@H](CC(C)C)C(=O)N2CCC[C@@H]2C(=O)O[C@@H]1C: PAMPA -5.03 (log10 cm/s). The entry for CC(=O)N1CCC[C@H]1C(=O)N(C)[C@@H](CC(C)C)C(=O)N[C@@H]1C(=O)N(C)[C@H](CC(C)C)C(=O)N[C@@H](CC(C)C)C(=O)N(C)[C@H](CC(C)C)C(=O)N(C)[C@H](C)C(=O)N[C@@H](CC(C)C)C(=O)N2CCC[C@H]2C(=O)O[C@@H]1C lists PAMPA -5.28 (log10 cm/s). Listed for CC(=O)N1CCC[C@@H]1C(=O)N(C)[C@@H](CC(C)C)C(=O)N[C@@H]1C(=O)N[C@H](CC(C)C)C(=O)N[C@H](CC(C)C)C(=O)N(C)[C@H](CC(C)C)C(=O)N(C)[C@H](C)C(=O)N[C@H](CC(C)C)C(=O)N2CCC[C@@H]2C(=O)O[C@@H]1C: PAMPA -5.82 (log10 cm/s).

The 2 lowest values of PAMPA among the entries above:

{"smiles": "CC(=O)N1CCC[C@H]1C(=O)N(C)[C@@H](CC(C)C)C(=O)N[C@@H]1C(=O)N[C@@H](CC(C)C)C(=O)N[C@@H](CC(C)C)C(=O)N[C@H](CC(C)C)C(=O)N(C)[C@H](C)C(=O)N[C@H](CC(C)C)C(=O)N2CCC[C@H]2C(=O)O[C@@H]1C", "PAMPA (log10 cm/s)": "-6.66"}
{"smiles": "CC(=O)N1CCC[C@H]1C(=O)N(C)[C@H](CC(C)C)C(=O)N[C@@H]1C(=O)N[C@H](CC(C)C)C(=O)N[C@H](CC(C)C)C(=O)N(C)[C@H](CC(C)C)C(=O)N[C@H](C)C(=O)N[C@H](CC(C)C)C(=O)N2CCC[C@@H]2C(=O)O[C@@H]1C", "PAMPA (log10 cm/s)": "-6.47"}